{"source": "patent US20110044991A1", "about": "“METHODS AND COMPOSITIONS FOR TREATING LYMPHOMA AND MYELOMA” (IRM LLC, priority 2006, published 2011)", "key": {"[1]": {"test_system": "bone marrow stroma cells from Cdkn2a−/− mice", "conditions": "cyclopamine 5 μM, 48 h, light microscopy", "protocol": "(§1) In order to investigate whether the Hh signalling pathway does indeed contribute to the survival and proliferation of lymphoma cells growing on an intact stromal layer, lymphoma cells were luciferased using a retrovirus expressing a puromycin/Luc fusion cassette. 2×10E4 lymphoma cells constitutively expressing luciferase were added to each 96-well containing a stromal layer (not expressing luciferase) isolated from Cdkn2a^−/− mice. A total of 34 individual Eμ-Myc-lymphomas and 8 Cdkn2a-lymphomas were tested. A luciferase assay was performed as a readout for cell viability and proliferation and results were also documented by light microscopy."}, "[2]": {"test_system": "Eμ-Myc lymphoma cells", "assay": "Luciferase assay and light microscopy of luciferased lymphoma cells on stromal layer", "assay_type": "cell-based, mouse", "conditions": "Myc-Ly6; 48 hours; 0, 0.5, 1, 5 and 10 μM", "protocol": "For Shh pathway inhibition on stroma, 6200 stroma cells were seeded per 96-well. After 24 hours 20,000 luciferased lymphoma cells were seeded on the stroma cells and 2 hours later compound or DMSO was added. Luciferase assay was performed with Bright-glow reagent as described. To generate cells overexpressing Hh pathway members, lymphoma cells were infected with Smo, Smo 535, Smo 562, Gli1 and Fused-pMSCV IRES GFP constructs and then sorted for GFP positive cells.\nas §1"}, "[3]": {"test_system": "lymphoma cells (Ly9)", "conditions": "50 mg/kg twice a day for 3 days, start 10 days after injection; vs control group", "protocol": "D: injection of 1 Mio luciferased lymphoma cells in C57B16 mice.\nImmunohistochemistry: Single colour DAB-immunoperoxidase staining was performed as described. Antibodies were obtained from Santa Cruz Biotechnologies (for Shh antibody, N-19), NeoMarkers (for Ki67 antibody) and Promega (for PARP antibody).\nMouse experiments: Black6 mice between 6 and 8 weeks of age were injected with 1 Mio luciferased lymphoma cells. […] Bioluminescence was measured with injection of […].\nWe next wished to determine the importance of Hh signalling in established lymphomas."}, "[4]": {"test_system": "Myc lymphoma cells (p53−/−, Cdkn2a−/−, Bcl2+, Bax−/−, Caspase3−/−)", "conditions": "5 μM, 48 h", "excerpt": "Genetically altered mice and culture of primary cells: Eμ-Myc mice (Adams et al., Nature 318: 533-53824, 1985), Cdkna^−/− mice (Serrano et al., Cell. 85:27-3725, 1996), Bax^−/− mice (The Jackson Laboratory, Bar Harbor, Me.), Caspase3^−/− mice (The Jackson laboratory), p53^−/− mice (The Jackson Laboratory) and Bcl2 tg mice (The Jackson laboratory) were maintained and genotyped as described. Eμ-Myc mice and Cdkn2a−/− mice were monitored for signs of disease including development of visible lymphomas or weight loss from more than 15%. Mice with terminal disease were sacrificed, bone marrow, spleen and lymph nodes were extracted and lymphoma cells were propagated under Witlock/Witte culture conditions. For maintained growth cells were transferred on bone marrow stroma from Cdkn2a−/− mice after 2-3 weeks of culture. For generation of lymphomas with defined genetic background, bone marrow from p53−/− mice, Caspase3−/− mice, Bax−/− mice, Cdkn2a−/− mice and Bcl2 tg mice was extracted and pMSCV c-Myc IRES GFP was overexpressed. Propagation of transformed lymphocytes was performed under Witlick/Witte culture conditions and lymphomas were maintained on stroma from Cdkn2a−/− mice. […]"}}, "data": [{"smiles": "CC1=C2C[C@H]3[C@@H](CC=C4C[C@@H](O)CC[C@@]43C)[C@@H]2CC[C@]12O[C@@H]1C[C@H](C)CN[C@H]1[C@H]2C", "note": "[cyclopamine]", "values": [{"measurement": "growth and survival of the stromal layer", "setting": "[1]", "value": "not affected"}, {"measurement": "luciferase activity (viable lymphoma cells)", "setting": "[2]", "value": "reduced in a dose dependant manner"}, {"measurement": "light emission from mice", "setting": "[3]", "value": "significantly reduced"}, {"measurement": "viable cells", "setting": "[4]", "value": "no reduction of viable cells"}]}]}
